# Test results taken from PubChem BioAssay AID435003 (Sanford-Burnham Center for Chemical Genomics, 2010).
# This is a selection; strong and weak results do not stand in their true shares. Calls of active or inactive are those of the source. No stated cut-off is given here; in the data, active means inhibition above about 50%; inactive means the rest.
# Experiment: lowers stimulated NF-kB reporter luminescence – cell-based, uHTS, TCR NF-kB activation inhibitor project, primary screen (AID 435003)
# Conditions: Jurkat, PMA/ionomycin-induced NF-kB luciferase reporter, at 4 µM, stronger effect = higher value
row,Structure (SMILES),inhibition
1,O=[As](O)(c1ccccc1Br)c1ccccc1Br,inactive: -1.37%
